We go through 1 molecule from PubChem BioAssay AID781 (Emory University Molecular Libraries Screening Center, 2007).

The chains behind the UniProt entries cited, without tags or fusion partners.
UniProt P63103, whole entry: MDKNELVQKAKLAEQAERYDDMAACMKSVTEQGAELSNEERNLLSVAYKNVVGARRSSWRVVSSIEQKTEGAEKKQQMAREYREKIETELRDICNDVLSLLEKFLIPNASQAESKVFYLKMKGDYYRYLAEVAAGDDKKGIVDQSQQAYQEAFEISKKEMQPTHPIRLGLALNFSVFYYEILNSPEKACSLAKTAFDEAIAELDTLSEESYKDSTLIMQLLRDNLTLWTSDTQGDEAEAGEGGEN

Each structure is given as a SMILES string. Only a part is listed here, and it is no random draw. Calls of active or inactive are those of the source.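 Rule for the calls: active = inhibition above about 70% (limit read from the data); inactive = the rest.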

The assay has as its target 14-3-3 protein zeta/delta (Bos taurus) (UniProt P63103). The assay can be described thus: inhibitors of 14-3-3 zeta/Bad binding, primary screen, biochemical, TR-FRET, bovine 14-3-3 zeta (AID 781).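 Note: 0% = full 14-3-3 plus peptide FRET controls and 100% = background without 14-3-3.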 The conditions noted are these: TR-FRET 14-3-3zeta/Dy647-pBad peptide displacement, 1 h; at 21.7 µM; active compounds read high. On the technique in general: Time-resolved FRET reads energy transfer from a long-lived donor to a nearby acceptor.
`CCN(N=Nc1nonc1N)c1nonc1N`: the inhibition (as a rule, the change of the read-out against control, counted positive when it falls) is inactive: -13.8%.
